# Binding of CDR-mutated scFvs to a peptide of the spike HR2 region

Values reported by Li et al. 2023, doi:10.1038/s41467-023-39022-2 (FLAb copy).

All variants were tested on one target, the spike HR2 peptide PDVDLGDISGINAS (SARS-CoV-2).

Ab-14 is the parent antibody, in scFv form: VH, then three GGGGS repeats, then VL. The heavy chain is unchanged in all variants.
VH: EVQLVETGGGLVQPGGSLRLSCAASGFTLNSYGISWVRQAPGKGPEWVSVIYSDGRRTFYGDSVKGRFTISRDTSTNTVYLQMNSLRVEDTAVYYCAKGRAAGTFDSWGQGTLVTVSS
VL: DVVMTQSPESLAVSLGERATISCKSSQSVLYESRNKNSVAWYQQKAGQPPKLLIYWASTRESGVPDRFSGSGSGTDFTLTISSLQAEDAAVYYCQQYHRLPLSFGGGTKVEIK

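This is the validation round: designs drawn from the data on random variants, tested in the same kind of assay. Group labels follow the data file (Ctrl: baseline library sampled from a position-specific scoring matrix, with some repeated check sequences; En: ensemble of fine-tuned language models; GP: Gaussian process model; HC: hill climbing; Gen: genetic algorithm; Gibbs: Gibbs sampling; a sequence that several methods proposed may carry one label only). Affinity was read by AlphaSeq, a pooled yeast mating assay with surface-displayed partners. After mating in shaken culture at 30 °C for 16 h, diploids were selected and their barcode pairs sequenced. The ratio of observed to expected reads was calibrated, replicate by replicate, on BCL2-family standards whose Kd was known from biolayer interferometry. Each pool was mated in six replicate cultures.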

Each variant is given by its three light chain CDRs, as the data file delimits them; those of the parent are KSSQSVLYESRNKNSVA, WASTRES, QQYHRLPLS. Affinities are written as log10 Kd with Kd in nM; a lower number is a better binder. A mean of the replicates is given; it leaves out those without a signal. "not detected" marks a missing value. The strain was present, yet no cells mated with the target were sequenced in any replicate, which points to weak or no binding. Background: pairings of all light chain designs with three empty control strains gave a value in 4% of cases (median 2.64, 5th percentile 1.59). Values in that range, when seen in few replicates, are hard to tell from nonspecific mating. The control count says in how many pairings with the empty strains this scFv gave a signal. The range of this assay differs from that of the first round, and the authors advise against merging the two. The authors averaged sequences with at least three values out of six and counted those with two or fewer as poor binders.

| # | CDR-L1 | CDR-L2 | CDR-L3 | group | log10 Kd (nM), mean | replicates with signal | control signals |
|---|---|---|---|---|---|---|---|
| 1 | KWSCSSLYDDANKNSVA | NASTRLS | QQYHRLPLS | GP_Gibbs | 0.34 | 6 of 6 | 2 of 18 |
| 2 | KLEQSVEYESRNKNSVA | EASTRES | QQYHRLPLS | GP_Gen | -0.18 | 6 of 6 | 1 of 18 |
| 3 | KLPVLKLYWSRNKNSVA | EASTRES | QQYHRLPLS | GP_Gibbs | 2.48 | 5 of 6 | 0 of 18 |
| 4 | MISMMHAMQYNEESSIA | DAEALNS | QQYFELPLS | En_Gibbs | 2.07 | 1 of 6 | 1 of 18 |
| 5 | KCSQSVLFESRNKNSVA | DASFRES | QQYHRLPLS | GP_HC | 1.13 | 6 of 6 | 0 of 18 |
| 6 | SLYEMSYELSGKTHSVA | DNSTRGD | QQYFRLPLQ | En_Gen | 1.66 | 6 of 6 | 1 of 18 |
| 7 | TISQSTYIESFNKNSVA | QTSTREE | QDYDRLPLS | En_HC | 2.76 | 2 of 6 | 0 of 18 |
| 8 | TISTSMRYESSLKNAIA | NAQTRES | QQYHRLPLS | En_HC | 0.17 | 6 of 6 | 0 of 18 |
| 9 | KLSMSVLYESRNKNSVA | NASTRMS | QQYHRLPLS | GP_Gen | 0.82 | 6 of 6 | 0 of 18 |
| 10 | KLSQSVLMESRNKNSVA | EASTREV | QQYHRLPLS | GP_Gen | -0.16 | 6 of 6 | 1 of 18 |
| 11 | KLSQSFLYESRNKNSVA | NASTREK | QQYHRLPLS | GP_Gen | -0.16 | 6 of 6 | 1 of 18 |
| 12 | HMSALTLMGSRQRNSVA | QMTTREN | QQYDRLPLA | En_Gen | 0.24 | 6 of 6 | 2 of 18 |
| 13 | KVSSFMRGLMMRKDSIA | DNETRIN | QQYDRLPLS | En_Gen | 1.97 | 6 of 6 | 1 of 18 |
| 14 | HLSDSVLYESRNKNSVA | NASTRES | QQYHRLPLT | GP_HC | 0.17 | 6 of 6 | 0 of 18 |
| 15 | KSNQSVLYDSRNKNSVA | NASVPES | QQYHRLWLS | Ctrl | 1.29 | 6 of 6 | 0 of 18 |
| 16 | KSSQSQLYEERNKNSVA | WASTRES | QQYHRLPLS | Ctrl | 0.75 | 6 of 6 | 0 of 18 |
| 17 | KFSQSNLYESRNKNSVA | NASTRES | QQYHRLPLS | GP_Gen | -0.31 | 6 of 6 | 0 of 18 |
| 18 | VSSQSVLYESTNKNSVA | WGSTRES | QQYHRLPLS | Ctrl | 1.56 | 6 of 6 | 1 of 18 |
| 19 | HISMSMNWLSRNKNSIA | EESTRED | QQYHRLPLS | En_HC | -0.29 | 6 of 6 | 0 of 18 |
| 20 | KSSQSVLYEDRNKNSVA | SASTRES | QQYHRLPLS | Ctrl | 1.55 | 6 of 6 | 0 of 18 |
| 21 | KSPQSVLYESRNKNSVA | HASTRED | QQYGRLPLS | GP_HC | 0.09 | 6 of 6 | 3 of 18 |
| 22 | KFSQSELYESRTKNSVA | NASTRES | QQYHQLPLS | GP_HC | 0.19 | 6 of 6 | 1 of 18 |
| 23 | KNSQSVVYEDRNNNSVA | DASTRES | QQYSRLPLK | Ctrl | 0.32 | 6 of 6 | 0 of 18 |

Second part, the sequence after the result:

| # | log10 Kd (nM), mean | replicates with signal | control signals | CDR-L1 | CDR-L2 | CDR-L3 | group |
|---|---|---|---|---|---|---|---|
| 24 | 0.07 | 6 of 6 | 0 of 18 | KLSQSVLYESRNANSVA | GASTRES | QQYHRLPLS | Ctrl |
| 25 | 0.84 | 6 of 6 | 0 of 18 | KSSGSWLYESRNKNSVA | HASTREQ | QQYHRLPLS | GP_HC |
| 26 | -0.22 | 6 of 6 | 2 of 18 | KLSQSMLYESRNWNSVA | NASQRES | QQYHRLPLS | GP_Gen |
| 27 | 0.14 | 6 of 6 | 2 of 18 | KLMQSDLYESRNKNSVA | NASQRES | QQYHRLPLS | GP_Gen |
| 28 | 0.03 | 6 of 6 | 0 of 18 | KIQQSVLYESRNKNSVA | GASTRES | QQYHRLPLS | GP_Gen |
| 29 | 2.61 | 3 of 6 | 0 of 18 | MVYQAALMGGVARNSIA | NATMRPD | QQYHRLPLI | En_Gen |
| 30 | 0.71 | 6 of 6 | 6 of 18 | IISDVDAYESRNKNSIA | DQSTRGS | QQYDRLPLS | En_HC |
| 31 | 1.51 | 6 of 6 | 3 of 18 | MISQLYNMGTFAINSVA | QASIRNS | QQYDRLPLL | En_Gen |
| 32 | -0.15 | 6 of 6 | 3 of 18 | KSSGGWLYESRNKNSVA | GASTRED | QQYHRLPLS | GP_HC |
| 33 | 0.94 | 6 of 6 | 2 of 18 | MVSQLMVWGMHAKNSIA | EAQMRLN | QQYDRLPLF | En_Gen |
| 34 | 0.35 | 6 of 6 | 0 of 18 | KISQSILYESVNKNSVA | HASTRES | QQYHRLPLS | GP_HC |
| 35 | 0.94 | 6 of 6 | 2 of 18 | KLVNFMNRGTHHTSNIA | DAQNRSD | QQYARLPLA | En_Gen |
| 36 | 1.10 | 6 of 6 | 2 of 18 | TISGLIMMPSRAKNSVA | NTSTRYQ | QQYHRLPLI | En_HC |
| 37 | not detected | 0 of 6 | 0 of 18 | KSSQSLLTDSFNKNSVA | WASTRES | QQTCRLPLS | Ctrl |
| 38 | 0.58 | 6 of 6 | 0 of 18 | KIGMTLNQLYEKQNNVA | DLVEREN | QQYHRLPLS | En_Gen |
| 39 | -0.08 | 6 of 6 | 0 of 18 | KLSQSVDYESRNKNSVA | HASTRES | QQYHRLPLS | GP_Gen |
| 40 | 1.73 | 6 of 6 | 0 of 18 | KLSQSVLFWGSAINSVA | EMETREY | QQYDRLPLS | En_HC |
| 41 | 1.57 | 1 of 6 | 0 of 18 | KSSQSVLYETRNKNSVA | WASTRES | QQMHRLPLS | Ctrl |
| 42 | 1.25 | 6 of 6 | 1 of 18 | KISQNMGETQRMKNSVA | EVSTVPS | QQYWRLPLS | En_HC |
| 43 | -0.14 | 6 of 6 | 0 of 18 | KSGWGVLYESRNKNSVA | GASTRES | QQYHRLPLS | GP_HC |
| 44 | -0.09 | 6 of 6 | 1 of 18 | HSSPSELYESRNGNSVA | NASTRES | QQYHRLPLS | GP_HC |
| 45 | -0.29 | 6 of 6 | 3 of 18 | KVQQSVLYESRNKNAVA | NASTRES | QQYHRLPLS | GP_Gen |
| 46 | 1.04 | 6 of 6 | 1 of 18 | KISGLVNFFGHAINSVA | EMETREN | QQYDRLPLS | En_HC |

Extract of 4 entries:

CDR-L1	CDR-L2	CDR-L3	group	log10 Kd (nM), mean	replicates with signal	control signals
VSSQSVLYESTNKNSVA	WGSTRES	QQYHRLPLS	Ctrl	1.56	6 of 6	1 of 18
SLYEMSYELSGKTHSVA	DNSTRGD	QQYFRLPLQ	En_Gen	1.66	6 of 6	1 of 18
MVYQAALMGGVARNSIA	NATMRPD	QQYHRLPLI	En_Gen	2.61	3 of 6	0 of 18
KLSMSVLYESRNKNSVA	NASTRMS	QQYHRLPLS	GP_Gen	0.82	6 of 6	0 of 18